Experimental findings from patent publication US20220098203A1 (priority 2018, published 2022) are described below.

The chains behind the UniProt entries cited, without tags or fusion partners.
UniProt P31153, whole entry: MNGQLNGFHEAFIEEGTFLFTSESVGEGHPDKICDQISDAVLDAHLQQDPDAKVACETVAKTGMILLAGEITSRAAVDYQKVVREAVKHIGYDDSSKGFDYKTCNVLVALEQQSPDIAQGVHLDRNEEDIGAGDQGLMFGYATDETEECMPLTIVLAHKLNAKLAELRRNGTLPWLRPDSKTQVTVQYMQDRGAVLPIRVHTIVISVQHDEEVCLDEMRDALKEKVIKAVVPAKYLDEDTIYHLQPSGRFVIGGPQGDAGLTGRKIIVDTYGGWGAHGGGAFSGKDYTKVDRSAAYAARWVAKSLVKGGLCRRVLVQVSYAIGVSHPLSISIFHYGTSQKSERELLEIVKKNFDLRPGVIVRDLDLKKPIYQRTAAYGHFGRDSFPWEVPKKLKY

The structures appear in SMILES notation. Some results are limits rather than exact numbers.

One assay concerns HCT116 MTAP+/+. The assay can be described thus: Inhibition of cellular proliferation (Cell Titer Glo), HCT116 MTAP+/+. The conditions noted are these: read-out: 4 Day Relative Growth Inhibition (MTAP +/+), Table 5a, 4 days.
For a further assay, the system named is HCT116 MTAP-/-. The assay can be described thus: Inhibition of cellular proliferation (Cell Titer Glo), HCT116 MTAP-/-. Particulars: read-out: 4 Day Relative Growth Inhibition (MTAP −/−), Table 5a, 4 days. On the technique in general: Cellular ATP, detected with luciferase, serves as a proxy for viable cell number.
Assay [1] relates to SAM in HCT116 MTAP-deleted cells. Kind of assay: Cellular assay of target engagement (SAM), LC-MS/MS. The conditions noted are these: read-out: Cell 72 h SAM Inhibition (MTAP −/−), Table 5a.
For a further assay, the target named is MAT2A homodimer (Homo sapiens, UniProt P31153). Kind of assay: MAT2A biochemical assay (liberated phosphate, PiColorLock Gold). Particulars: read-out: Enzyme Inhibition, Table 5a.

For the molecule `Cn1cc2cc(N3Cc4ccc(NCC(F)(F)F)cc4N(c4ccc(Cl)cc4)C3=O)ccc2n1`, the IC50 in the assay with HCT116 MTAP+/+ is greater than 1 µM; in the assay on HCT116 MTAP-/- it was 0.1 to 1 µM; in assay [1] it was 0.1 to 1 µM; on MAT2A homodimer, 0.1 to 1 µM.
`CCOc1ccc2c(c1)N(c1ccc(Cl)cc1)C(=O)N(c1ccc3nn(C)cc3c1)C2`: the IC50 in the assay with HCT116 MTAP+/+ was greater than 1 µM; in the assay with HCT116 MTAP-/- it was 0.1 to 1 µM; in assay [1] it was 0.1 to 1 µM; at MAT2A homodimer it was less than 0.1 µM.
